Source: PMC3527104 (Bioorganic & medicinal chemistry, 2012)

Sequences of proteins named here, by UniProt entry; tags and fusion partners are left off. Residues count along the entry.
UniProt P49582, 23-502: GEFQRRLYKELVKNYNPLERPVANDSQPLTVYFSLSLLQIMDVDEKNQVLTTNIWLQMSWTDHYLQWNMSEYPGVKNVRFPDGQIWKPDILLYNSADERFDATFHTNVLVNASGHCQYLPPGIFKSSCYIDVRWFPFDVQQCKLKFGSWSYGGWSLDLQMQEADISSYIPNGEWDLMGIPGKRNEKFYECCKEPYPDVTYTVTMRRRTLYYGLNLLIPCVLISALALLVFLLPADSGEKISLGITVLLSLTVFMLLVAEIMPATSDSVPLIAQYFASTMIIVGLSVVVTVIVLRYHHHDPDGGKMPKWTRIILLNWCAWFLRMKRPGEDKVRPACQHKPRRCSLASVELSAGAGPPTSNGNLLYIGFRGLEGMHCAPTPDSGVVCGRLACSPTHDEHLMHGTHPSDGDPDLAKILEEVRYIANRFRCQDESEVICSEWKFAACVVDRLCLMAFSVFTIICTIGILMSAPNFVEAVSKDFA

Experiments:
α7-nAChRs = α7-nAChRs (Mus musculus, UniProt P49582); conditions: mice, biodistribution studies
5HT3 receptors = conditions: cited from earlier work
CEREP profiling = conditions: cited from earlier work

| Structure (SMILES) | blood-brain barrier penetration (α7-nAChRs) | interaction at 5HT3 receptors (5HT3 receptors) | interaction in the CEREP profiling (CEREP profiling) |
| --- | --- | --- | --- |
| [11CH3]N1CC2CN(c3ccc(-c4ccc5[nH]ccc5c4)nc3)CC21 (racemic) [[^11C]rac-1, 5-(5-(6-[^11C]methyl-3,6-diazabicyclo[3.2.0]heptan-3-yl)pyridin-2-yl)-1H-indole] | penetrates the blood-brain barrier |  |  |
| CN1C[C@@H]2CN(c3ccc(-c4ccc5[nH]ccc5c4)nc3)C[C@@H]21 [(1R,5R)-1, 5-(5-((1R,5R)-6-methyl-3,6-diazabicyclo[3.2.0]heptan-3-yl)pyridin-2-yl)-1H-indole] |  | no interaction | none or weak interaction |
